# Results published in patent US9302996B2, “Continuous arycyclic compound” (MITSUBISHI TANABE PHARMA CORPORATION, priority 2010, dated 2016).
# System: C57BL/6J mice
# Test: Antifeeding activity (high fat diet intake up to 4 hours)
# Settings: male C57BL/6J mice, 5 mg/kg oral, food ingested up to 4 hours
smiles,measurement,value
CC(C)(COc1ncc(-c2ccc(-c3ncc(C(F)(F)F)[nH]3)c(Cl)c2)cn1)C(=O)O,Antifeeding rate (5 mg/kg),58%
